Reference: ChEMBL document CHEMBL1141712, “Kinase array design, back to front: biaryl amides” (Bioorg Med Chem Lett, 2008)

Sequences of proteins named here, by UniProt entry; tags and fusion partners are left off. A change or cut given only in a name is not applied to a line headed by its entry.
UniProt Q15303, whole entry: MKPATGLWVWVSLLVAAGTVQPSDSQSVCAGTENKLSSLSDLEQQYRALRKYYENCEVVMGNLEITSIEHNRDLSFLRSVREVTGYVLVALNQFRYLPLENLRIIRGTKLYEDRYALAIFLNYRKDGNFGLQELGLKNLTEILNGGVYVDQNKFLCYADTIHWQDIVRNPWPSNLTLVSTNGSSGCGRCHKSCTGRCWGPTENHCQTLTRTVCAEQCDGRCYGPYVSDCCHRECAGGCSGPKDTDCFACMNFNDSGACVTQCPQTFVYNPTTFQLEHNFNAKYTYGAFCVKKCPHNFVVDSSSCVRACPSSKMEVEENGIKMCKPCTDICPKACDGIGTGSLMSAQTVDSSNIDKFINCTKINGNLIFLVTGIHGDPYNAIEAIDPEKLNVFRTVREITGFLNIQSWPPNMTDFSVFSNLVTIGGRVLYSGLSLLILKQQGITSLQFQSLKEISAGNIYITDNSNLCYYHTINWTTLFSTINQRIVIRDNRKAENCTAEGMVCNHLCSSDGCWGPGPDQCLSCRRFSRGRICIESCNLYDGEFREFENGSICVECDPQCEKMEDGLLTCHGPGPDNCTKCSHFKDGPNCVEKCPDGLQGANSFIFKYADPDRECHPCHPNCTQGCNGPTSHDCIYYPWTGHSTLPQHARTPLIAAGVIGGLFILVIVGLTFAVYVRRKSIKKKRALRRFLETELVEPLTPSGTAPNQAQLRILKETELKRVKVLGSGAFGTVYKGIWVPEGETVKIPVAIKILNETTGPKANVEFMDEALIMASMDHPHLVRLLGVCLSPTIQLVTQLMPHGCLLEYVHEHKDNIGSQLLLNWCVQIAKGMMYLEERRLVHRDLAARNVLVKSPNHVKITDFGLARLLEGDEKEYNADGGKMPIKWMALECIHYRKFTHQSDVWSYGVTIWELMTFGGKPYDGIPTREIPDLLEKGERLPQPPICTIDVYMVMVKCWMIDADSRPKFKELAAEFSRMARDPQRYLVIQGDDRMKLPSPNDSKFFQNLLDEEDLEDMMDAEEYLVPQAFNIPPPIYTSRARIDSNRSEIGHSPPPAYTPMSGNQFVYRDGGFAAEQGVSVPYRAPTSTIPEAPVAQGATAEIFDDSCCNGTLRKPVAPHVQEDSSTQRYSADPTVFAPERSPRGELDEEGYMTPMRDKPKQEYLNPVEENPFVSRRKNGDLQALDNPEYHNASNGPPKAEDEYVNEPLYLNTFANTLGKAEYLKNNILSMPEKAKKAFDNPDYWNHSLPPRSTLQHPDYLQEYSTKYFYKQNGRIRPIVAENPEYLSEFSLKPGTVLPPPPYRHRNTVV
UniProt P53779: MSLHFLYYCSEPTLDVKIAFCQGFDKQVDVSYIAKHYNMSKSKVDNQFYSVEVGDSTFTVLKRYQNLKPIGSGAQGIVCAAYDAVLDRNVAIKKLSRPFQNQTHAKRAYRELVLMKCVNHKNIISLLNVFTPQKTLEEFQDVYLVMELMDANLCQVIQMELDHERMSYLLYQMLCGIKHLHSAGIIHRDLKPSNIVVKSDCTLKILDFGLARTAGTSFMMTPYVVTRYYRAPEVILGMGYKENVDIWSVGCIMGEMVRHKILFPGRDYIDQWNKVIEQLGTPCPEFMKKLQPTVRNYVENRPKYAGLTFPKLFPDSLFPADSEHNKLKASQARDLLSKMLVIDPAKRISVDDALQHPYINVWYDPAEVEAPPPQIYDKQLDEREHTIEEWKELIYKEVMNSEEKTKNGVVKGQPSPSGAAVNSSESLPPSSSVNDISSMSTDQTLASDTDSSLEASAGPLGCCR

Tests used:
[1] = target: Receptor tyrosine-protein kinase erbB-4 (Homo sapiens, UniProt Q15303); assay: Inhibition of ErbB4
[2] = target: Mitogen-activated protein kinase 10 (Homo sapiens, UniProt P53779); assay: Inhibition of JNK3

| Compound | IC50 [1] [µM] | IC50 [2] [µM] |
| --- | --- | --- |
| Cc1nnc(-c2ccc(-c3cc(C(=O)Nc4cccc(N5CCOCC5)c4)ccc3C)c(C)c2)o1 | > 25 |  |
| Cc1ccc(C(=O)NC2CC2)cc1-c1ccc2c(C3CCNCC3)noc2c1 |  | > 16 |
| Cc1nnc(-c2ccc(-c3cc(C(=O)NC4CC4)ccc3C)c(C)c2)o1 | > 25 |  |
